Results on 1 compound are retold here after patent US20130079271A1, “REVERSED BIARYL SPIROAMINOOXAZOLINE ANALOGUES AS ALPHA2C ADRENERGIC RECEPTOR MODULATORS” (priority 2009, published 2013).

Amino acid sequences for entries named in this document (tags omitted).
UniProt P18825, whole entry: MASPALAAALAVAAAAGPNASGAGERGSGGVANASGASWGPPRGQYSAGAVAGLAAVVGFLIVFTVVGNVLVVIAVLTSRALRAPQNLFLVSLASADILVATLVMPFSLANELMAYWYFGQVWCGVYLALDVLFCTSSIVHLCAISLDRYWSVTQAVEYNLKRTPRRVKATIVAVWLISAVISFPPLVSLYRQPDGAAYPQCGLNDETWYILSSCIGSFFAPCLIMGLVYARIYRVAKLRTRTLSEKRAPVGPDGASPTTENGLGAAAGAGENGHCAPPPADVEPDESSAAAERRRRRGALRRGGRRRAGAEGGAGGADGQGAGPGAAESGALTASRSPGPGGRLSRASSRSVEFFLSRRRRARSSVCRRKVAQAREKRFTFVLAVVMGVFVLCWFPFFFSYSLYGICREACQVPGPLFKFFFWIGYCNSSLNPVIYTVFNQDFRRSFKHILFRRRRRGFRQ

For experiment [1], the target named is T1, α2C receptor (Homo sapiens, UniProt P18825). Briefly: Ki at the α2C receptor subtype (binding inhibition). To be noted: read-out: Ki at the α2C receptor subtype.
Experiment [2] has as its target T1, α2C receptor. Briefly: Efficacy agonist activity (Emax, GTPγS assay) at α2C. To be noted: by definition: efficacy at α2C <30% Emax (GTPγS assay) and Ki at α2C <500 nM. Here is the method:
Efficacy agonist activity values (Emax, GTPγS assay) for α2A and α2C were determined by following the general procedure detailed by Umland et. al (“Receptor reserve analysis of the human α2c-adrenoceptor using [^35S]GTPγS and cAMP functional assays” European Journal of Pharmacology 2001, 411, 211-221). For the purposes of the present invention, a compound is defined to be a specific or at least functionally selective agonist of the α2C receptor subtype if the compound's efficacy at the α2C receptor is ≧30% Emax (GTPγS assay) and its efficacy at the α2A receptor is ≦35% Emax (GTPγS assay). Additionally, for the purposes of this invention, a compound is defined to be an antagonist of the α2C receptor subtype if the compound's efficacy at the α2C receptor is <30% Emax (GTPγS assay) and the Ki at the α2C receptor subtype was <500 nM, preferentially <200 nM, and most preferentially <20 nM.

The term Ki denotes a measure of affinity in units of concentration, obtained from inhibition or displacement. As to `C[C@H]1N=C(N)O[C@@]12CCc1c(cccc1-c1cncnc1)C2`, the Ki on α2C receptor [1] is below 200 nM. For the same compound, the “evaluated to be an antagonist of the α2C receptor subtype” value on α2C receptor [2] is “antagonist”.
